Experiment [1] in a line: Ratio of binding affinities of pcp receptor(ki(nM)) to sigma opioid receptor(ki(nM)).
Experiment [2] is described as follows: Binding affinity against sigma opioid receptor using [3H]pentazocine as radioligand.

Usually pKi stands for −log10 of the Ki, conventionally taken in molar units. A lower pKi goes with a high Ki.

pKi: −log10 of the molar value.

For the molecule `C[C@@H]1[C@@H]2Cc3ccc(O)cc3[C@]1(C)CCN2Cc1ccccc1`, in experiment [1], the Ratio is greater than 14900.

In the case of `C[C@H]1[C@H]2Cc3ccc(O)cc3[C@@]1(C)CCN2Cc1ccccc1`, the Ratio in experiment [1] came to 178.

As for `C=CCN1CC[C@]2(C)c3cc(O)ccc3C[C@@H]1[C@@H]2C`, the Ratio in experiment [1] is less than 0.17.

For `C=CCN1CC[C@@]2(C)c3cc(O)ccc3C[C@H]1[C@H]2C`, the Ratio in experiment [1] amounted to 3.77. The pKi in experiment [2] was 7.22.
